Measured values: paper PMC10124904, “Activation of Gcn2 by small molecules designed to be inhibitors” (The Journal of Biological Chemistry, 2023)
pIC50: −log10 of the molar value. Several values for one entry are separate records, joined by “and”; a condition that tells them apart may be missing. Identical values can stand only once. Like-named read-outs stand apart in the source and are kept apart here.

Chains of the proteins cited; added tags and fusions are not shown. Lines headed by an entry give the natural chain unless they say otherwise; changes in a name come on top.
UniProt Q9P2K8, whole entry: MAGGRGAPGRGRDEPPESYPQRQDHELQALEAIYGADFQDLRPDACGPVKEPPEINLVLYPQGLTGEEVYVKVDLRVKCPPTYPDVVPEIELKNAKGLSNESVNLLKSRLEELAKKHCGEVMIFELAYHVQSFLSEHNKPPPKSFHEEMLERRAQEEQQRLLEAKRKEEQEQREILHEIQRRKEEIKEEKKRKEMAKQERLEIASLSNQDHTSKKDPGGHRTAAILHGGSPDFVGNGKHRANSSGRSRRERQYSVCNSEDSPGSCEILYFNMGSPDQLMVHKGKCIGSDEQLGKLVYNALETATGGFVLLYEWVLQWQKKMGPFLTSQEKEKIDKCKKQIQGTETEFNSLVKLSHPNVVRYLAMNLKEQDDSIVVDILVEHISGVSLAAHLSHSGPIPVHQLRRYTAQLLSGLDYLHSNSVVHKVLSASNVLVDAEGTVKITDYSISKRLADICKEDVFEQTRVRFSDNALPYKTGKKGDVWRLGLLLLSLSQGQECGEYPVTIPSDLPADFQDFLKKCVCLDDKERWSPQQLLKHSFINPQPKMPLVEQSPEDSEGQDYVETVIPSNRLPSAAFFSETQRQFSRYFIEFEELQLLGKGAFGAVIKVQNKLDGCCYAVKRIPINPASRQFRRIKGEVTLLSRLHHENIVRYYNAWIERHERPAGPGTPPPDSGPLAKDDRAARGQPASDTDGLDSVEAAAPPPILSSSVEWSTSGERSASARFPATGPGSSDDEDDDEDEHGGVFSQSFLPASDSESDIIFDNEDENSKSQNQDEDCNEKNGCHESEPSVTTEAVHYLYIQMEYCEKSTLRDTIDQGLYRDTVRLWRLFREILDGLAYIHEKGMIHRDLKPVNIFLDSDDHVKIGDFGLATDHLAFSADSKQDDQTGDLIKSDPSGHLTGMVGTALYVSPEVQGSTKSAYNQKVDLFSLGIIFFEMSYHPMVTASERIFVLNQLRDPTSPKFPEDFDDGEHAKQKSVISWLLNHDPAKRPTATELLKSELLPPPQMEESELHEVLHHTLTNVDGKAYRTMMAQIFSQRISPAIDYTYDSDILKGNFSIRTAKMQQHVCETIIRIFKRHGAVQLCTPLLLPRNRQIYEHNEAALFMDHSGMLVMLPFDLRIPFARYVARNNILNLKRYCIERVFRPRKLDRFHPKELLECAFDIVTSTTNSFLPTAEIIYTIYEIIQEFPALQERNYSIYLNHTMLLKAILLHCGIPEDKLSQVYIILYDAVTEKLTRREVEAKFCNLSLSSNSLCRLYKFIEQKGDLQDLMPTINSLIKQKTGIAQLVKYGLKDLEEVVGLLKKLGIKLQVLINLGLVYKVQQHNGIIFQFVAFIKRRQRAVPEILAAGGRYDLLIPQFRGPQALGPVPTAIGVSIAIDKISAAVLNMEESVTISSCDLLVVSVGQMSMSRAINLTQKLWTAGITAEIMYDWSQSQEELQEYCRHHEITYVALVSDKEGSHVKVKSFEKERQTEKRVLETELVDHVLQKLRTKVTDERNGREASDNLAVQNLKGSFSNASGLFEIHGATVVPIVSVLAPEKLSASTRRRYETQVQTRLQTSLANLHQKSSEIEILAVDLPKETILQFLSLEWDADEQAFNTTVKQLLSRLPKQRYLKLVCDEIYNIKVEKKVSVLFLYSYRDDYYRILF
UniProt Q9P2K8, whole entry M802F: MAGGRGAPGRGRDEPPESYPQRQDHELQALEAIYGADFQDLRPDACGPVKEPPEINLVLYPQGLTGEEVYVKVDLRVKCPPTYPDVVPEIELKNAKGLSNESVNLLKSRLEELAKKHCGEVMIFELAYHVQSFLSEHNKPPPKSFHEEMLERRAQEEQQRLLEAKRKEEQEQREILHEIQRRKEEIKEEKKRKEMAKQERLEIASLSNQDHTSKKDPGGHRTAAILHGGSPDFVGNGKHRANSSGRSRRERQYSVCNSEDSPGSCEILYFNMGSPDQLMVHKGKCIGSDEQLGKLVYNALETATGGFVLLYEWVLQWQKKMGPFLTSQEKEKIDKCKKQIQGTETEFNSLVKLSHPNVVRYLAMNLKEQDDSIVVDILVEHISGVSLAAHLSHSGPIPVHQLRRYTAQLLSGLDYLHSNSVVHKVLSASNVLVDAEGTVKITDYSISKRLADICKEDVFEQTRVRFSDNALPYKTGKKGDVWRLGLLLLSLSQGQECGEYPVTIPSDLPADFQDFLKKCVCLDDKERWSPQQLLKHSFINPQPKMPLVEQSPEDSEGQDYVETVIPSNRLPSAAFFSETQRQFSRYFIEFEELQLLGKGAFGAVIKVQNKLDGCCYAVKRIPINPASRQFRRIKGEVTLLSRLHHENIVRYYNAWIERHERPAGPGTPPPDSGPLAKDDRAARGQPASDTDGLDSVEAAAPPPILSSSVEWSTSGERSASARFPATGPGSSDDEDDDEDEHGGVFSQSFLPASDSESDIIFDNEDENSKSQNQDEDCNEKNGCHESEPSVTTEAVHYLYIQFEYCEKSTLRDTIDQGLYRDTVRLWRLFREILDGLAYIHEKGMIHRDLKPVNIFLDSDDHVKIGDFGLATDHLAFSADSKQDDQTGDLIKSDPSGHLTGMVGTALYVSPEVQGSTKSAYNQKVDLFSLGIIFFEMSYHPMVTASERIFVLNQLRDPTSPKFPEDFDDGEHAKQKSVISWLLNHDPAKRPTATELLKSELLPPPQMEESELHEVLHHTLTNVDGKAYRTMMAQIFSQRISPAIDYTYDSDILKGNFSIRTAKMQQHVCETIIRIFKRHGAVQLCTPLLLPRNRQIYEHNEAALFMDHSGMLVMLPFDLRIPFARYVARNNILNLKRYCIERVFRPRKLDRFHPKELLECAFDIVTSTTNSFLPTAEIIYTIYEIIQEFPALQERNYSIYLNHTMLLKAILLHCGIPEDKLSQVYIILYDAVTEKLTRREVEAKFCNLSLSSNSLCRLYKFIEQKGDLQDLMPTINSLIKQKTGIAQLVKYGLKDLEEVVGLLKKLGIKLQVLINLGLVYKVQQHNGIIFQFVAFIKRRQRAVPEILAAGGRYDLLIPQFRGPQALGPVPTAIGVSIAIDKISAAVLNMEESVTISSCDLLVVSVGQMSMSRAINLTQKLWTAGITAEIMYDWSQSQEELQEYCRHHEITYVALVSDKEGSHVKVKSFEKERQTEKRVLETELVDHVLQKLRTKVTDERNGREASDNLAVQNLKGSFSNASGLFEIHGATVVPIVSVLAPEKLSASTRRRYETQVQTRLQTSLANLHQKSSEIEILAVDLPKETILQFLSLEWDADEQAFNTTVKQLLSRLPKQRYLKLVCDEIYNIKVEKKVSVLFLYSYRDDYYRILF
UniProt Q9P2K8, whole entry M802V: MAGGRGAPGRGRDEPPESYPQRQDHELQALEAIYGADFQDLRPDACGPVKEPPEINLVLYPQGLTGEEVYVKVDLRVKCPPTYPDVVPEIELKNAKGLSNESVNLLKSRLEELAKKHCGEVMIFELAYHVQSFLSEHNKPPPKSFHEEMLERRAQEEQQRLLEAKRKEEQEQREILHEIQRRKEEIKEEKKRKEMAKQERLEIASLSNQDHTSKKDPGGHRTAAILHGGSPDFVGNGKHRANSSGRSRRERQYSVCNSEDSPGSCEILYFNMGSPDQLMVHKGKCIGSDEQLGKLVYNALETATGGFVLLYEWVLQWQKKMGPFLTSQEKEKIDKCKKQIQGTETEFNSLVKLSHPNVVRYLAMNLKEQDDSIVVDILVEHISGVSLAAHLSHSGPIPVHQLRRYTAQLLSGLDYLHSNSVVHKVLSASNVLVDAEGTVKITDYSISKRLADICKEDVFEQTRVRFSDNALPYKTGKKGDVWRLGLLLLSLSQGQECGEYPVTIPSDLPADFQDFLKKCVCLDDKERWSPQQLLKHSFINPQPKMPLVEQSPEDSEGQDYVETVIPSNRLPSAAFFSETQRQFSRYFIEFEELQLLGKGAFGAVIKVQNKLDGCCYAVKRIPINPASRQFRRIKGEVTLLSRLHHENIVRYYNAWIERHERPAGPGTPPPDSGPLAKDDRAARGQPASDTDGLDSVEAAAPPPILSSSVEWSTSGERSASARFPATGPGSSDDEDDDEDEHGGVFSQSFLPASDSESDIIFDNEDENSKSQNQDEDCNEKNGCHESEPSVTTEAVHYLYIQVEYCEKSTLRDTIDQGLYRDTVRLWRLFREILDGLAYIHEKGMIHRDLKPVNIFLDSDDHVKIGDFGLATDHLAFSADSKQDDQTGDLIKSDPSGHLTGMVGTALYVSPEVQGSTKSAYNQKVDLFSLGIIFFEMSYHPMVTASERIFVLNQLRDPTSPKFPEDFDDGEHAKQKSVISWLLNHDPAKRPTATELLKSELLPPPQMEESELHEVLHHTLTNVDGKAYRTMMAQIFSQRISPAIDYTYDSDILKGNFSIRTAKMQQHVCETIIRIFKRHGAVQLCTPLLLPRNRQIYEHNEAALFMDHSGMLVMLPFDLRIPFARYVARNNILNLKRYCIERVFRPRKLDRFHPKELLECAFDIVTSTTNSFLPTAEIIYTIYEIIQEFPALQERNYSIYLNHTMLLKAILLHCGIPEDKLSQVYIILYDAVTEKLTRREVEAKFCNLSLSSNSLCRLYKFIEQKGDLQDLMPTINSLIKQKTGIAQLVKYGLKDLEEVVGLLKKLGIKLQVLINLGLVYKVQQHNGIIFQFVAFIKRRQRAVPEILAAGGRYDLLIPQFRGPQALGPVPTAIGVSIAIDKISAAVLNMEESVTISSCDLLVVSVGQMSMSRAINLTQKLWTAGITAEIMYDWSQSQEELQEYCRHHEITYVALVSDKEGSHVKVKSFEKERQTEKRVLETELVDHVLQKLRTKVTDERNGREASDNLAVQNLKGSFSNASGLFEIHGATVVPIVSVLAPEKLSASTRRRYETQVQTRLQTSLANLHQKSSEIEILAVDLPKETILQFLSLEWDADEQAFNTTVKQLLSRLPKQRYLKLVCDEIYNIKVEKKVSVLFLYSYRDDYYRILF

Key:
Format in all cases: cell-based
Gcn2 [1] = target: T1, Gcn2 (Homo sapiens, UniProt Q9P2K8); experiment: P(AAREx6)-Luc Atf4 transcriptional activity reporter in HEK293 cells; details: for pIC50: read-out: A-92 IC50 (P(AAREx6)-Luc)
Gcn2 [2] = target: T1, Gcn2; experiment: Immunoblot of ISR markers (p-Gcn2, p-eIF2α, Atf4) in HEK293 cells with endogenous Gcn2 (End. WT); details: 1 μM A-92 or 2 μM 2B-Act pretreatment 30 min, then 50 nM Gcn2iB 6 h
Flag-Gcn2 WT = Flag-Gcn2 WT (Homo sapiens, UniProt Q9P2K8); experiment: Atf4-Luc translational reporter, Gcn2 KO HEK293 cells expressing Flag-Gcn2 WT; details: read-out: A-92 IC50 (Atf4-Luc); Flag-Gcn2 WT + HF: A-92 pretreatment 30 min, then 25 nM HF 6 h
Flag-Gcn2 M802F = Flag-Gcn2 M802F (Homo sapiens, UniProt Q9P2K8, M802F); experiment: Atf4-Luc translational reporter, Gcn2 KO HEK293 cells expressing Flag-Gcn2 M802F; details: read-out: A-92 IC50 (Atf4-Luc), A-92 only, 6 h
Flag-Gcn2 M802V = Flag-Gcn2 M802V (Homo sapiens, UniProt Q9P2K8, M802V); experiment: Atf4-Luc translational reporter, Gcn2 KO HEK293 cells expressing Flag-Gcn2 M802V; details: read-out: A-92 IC50 (Atf4-Luc), A-92 only, 6 h

c1nn(C2CCOCC2)cc1Nc1ncc2nnn(-c3ccc4cn[nH]c4c3)c2n1
A-92 concentrations that significantly reduced P(AAREx6)-Luc activity (Gcn2 [1]; A-92 pretreatment 30 min, cells induced by 12.5 nM HF or 31.25 nM Gcn2iB, 6 h): greater than 125 nM | effect on biphasic induction of luciferase activity by Gcn2iB (Gcn2 [1]; pretreated 30 min with 1 μM A-92 or 2 μM 2B-Act, then Gcn2iB 6 h): ablated | pIC50 (Gcn2 [1]; agonist 12.5 nM halofuginone, 6 h, A-92 pretreatment 30 min): 6.24 | pIC50 (Gcn2 [1]; agonist 31.25 nM Gcn2iB, 6 h, A-92 pretreatment 30 min): 7.07 and > 7.00 | pIC50 (Gcn2 [1]; agonist 1 μM borrelidin, 6 h, A-92 pretreatment 30 min): 6.54 | pIC50 (Gcn2 [1]; agonist 1 μM neratinib, 6 h, A-92 pretreatment 30 min): 7.16 and > 7.00 | effect of cotreatment on Gcn2iB-induced p-eIF2α and Atf4 levels (Gcn2 [2]): lowered p-eIF2α and Atf4 levels | pIC50 (Flag-Gcn2 WT): < 5.40 | pIC50 (Flag-Gcn2 M802F): 7.07 | pIC50 (Flag-Gcn2 M802V): 6.58
